# Results published in patent US6596687B1, “Cell adhesion inhibitors” (Biogen, Inc., priority 1995, dated 2003).
# Sequences of proteins named here, by UniProt entry; tags and fusion partners are left off. Residues count along the entry.
# UniProt P05556, 21-798 limits assumed: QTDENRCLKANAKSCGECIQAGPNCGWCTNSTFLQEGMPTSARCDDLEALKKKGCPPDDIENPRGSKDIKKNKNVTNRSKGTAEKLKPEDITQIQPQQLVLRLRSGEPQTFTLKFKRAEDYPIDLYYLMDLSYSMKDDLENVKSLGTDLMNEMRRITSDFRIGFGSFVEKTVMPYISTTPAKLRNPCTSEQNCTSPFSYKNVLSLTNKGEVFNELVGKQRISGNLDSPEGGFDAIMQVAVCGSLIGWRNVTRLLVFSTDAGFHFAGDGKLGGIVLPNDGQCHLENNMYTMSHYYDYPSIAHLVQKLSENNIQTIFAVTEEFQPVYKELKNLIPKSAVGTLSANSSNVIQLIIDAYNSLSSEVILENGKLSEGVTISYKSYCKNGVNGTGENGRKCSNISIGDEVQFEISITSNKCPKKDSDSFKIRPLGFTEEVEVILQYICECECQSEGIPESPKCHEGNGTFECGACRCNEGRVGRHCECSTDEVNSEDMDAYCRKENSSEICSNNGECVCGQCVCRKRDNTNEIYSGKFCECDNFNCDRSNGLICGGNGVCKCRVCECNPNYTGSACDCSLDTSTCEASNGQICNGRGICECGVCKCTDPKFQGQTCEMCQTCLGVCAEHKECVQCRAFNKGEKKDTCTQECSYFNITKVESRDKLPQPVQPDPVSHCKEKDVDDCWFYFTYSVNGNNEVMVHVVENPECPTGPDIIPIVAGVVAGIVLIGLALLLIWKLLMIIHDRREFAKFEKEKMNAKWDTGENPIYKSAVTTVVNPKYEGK
# UniProt P13612, 34-1032 limits assumed: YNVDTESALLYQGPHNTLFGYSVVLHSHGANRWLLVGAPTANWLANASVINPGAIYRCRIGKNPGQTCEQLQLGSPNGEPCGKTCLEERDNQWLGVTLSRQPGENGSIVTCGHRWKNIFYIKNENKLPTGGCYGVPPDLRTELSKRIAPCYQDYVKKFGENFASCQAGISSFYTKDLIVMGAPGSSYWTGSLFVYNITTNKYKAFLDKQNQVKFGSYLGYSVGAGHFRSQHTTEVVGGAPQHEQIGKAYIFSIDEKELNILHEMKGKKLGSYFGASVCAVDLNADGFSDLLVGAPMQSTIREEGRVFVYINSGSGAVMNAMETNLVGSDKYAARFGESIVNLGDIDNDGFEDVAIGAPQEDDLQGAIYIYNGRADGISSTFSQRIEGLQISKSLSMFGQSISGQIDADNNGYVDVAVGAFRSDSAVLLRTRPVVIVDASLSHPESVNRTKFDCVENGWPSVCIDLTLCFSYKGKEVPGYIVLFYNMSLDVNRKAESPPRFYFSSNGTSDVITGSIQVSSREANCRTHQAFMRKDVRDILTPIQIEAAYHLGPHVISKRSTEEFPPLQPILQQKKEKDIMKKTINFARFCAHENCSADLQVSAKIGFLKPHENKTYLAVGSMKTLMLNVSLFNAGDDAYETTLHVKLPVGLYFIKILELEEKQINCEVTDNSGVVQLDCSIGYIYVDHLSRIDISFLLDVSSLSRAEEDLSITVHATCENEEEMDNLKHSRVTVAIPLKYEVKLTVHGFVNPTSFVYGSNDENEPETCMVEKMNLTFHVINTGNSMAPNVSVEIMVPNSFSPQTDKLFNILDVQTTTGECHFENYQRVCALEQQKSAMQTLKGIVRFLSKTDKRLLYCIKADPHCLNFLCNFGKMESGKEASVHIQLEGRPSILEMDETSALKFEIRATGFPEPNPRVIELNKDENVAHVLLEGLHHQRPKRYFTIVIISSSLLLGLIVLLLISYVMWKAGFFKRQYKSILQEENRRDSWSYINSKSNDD
# pIC50: −log10 of the molar value.
# Biological target: VLA4 (Homo sapiens, UniProt P05556+P13612)
# Assay: Inhibition of VLA4-dependent adhesion of Ramos cells to BSA-CS1
# Assay type: cell-based
# Settings: BSA-CS1 coated wells, 2 mM MnCl2, 30 minutes at room temperature
row,Compound,pIC50
1,Cc1ccccc1NC(=O)Nc1ccc(CC(=O)N[C@@H](CCC(=O)O)C(=O)N[C@@H](CC(=O)O)C(=O)N[C@@H](Cc2c[nH]c3ccccc23)C(N)=O)cc1,> 7.30
2,CC[C@H](C)[C@H](NC(=O)[C@H](CC(=O)O)NC(=O)[C@H](CC(C)C)NC(=O)Cc1ccc(NC(=O)Nc2ccccc2C)cc1)C(N)=O,> 7.30
3,CC[C@H](C)[C@H](NC(=O)Cc1ccc(NC(=O)Nc2ccccc2C)cc1)C(=O)N[C@@H](CC(=O)O)C(=O)N[C@H](CCC(=O)O)C(N)=O,> 7.30
4,COc1nc(CC(=O)NC(CC(C)C)C(=O)NC(CC(=O)O)C(=O)NC(C(=O)N2CCCC2C(N)=O)C(C)C)ccc1NC(=O)Nc1ccccc1C (stereo not drawn),> 7.30
5,Cc1ccccc1NC(=O)Nc1ccc(CC(=O)N[C@@H](CO)C(=O)N[C@@H](CC(=O)O)C(=O)N[C@@H](CC(=O)O)C(N)=O)cc1,> 7.30
6,Cc1ccccc1NC(=O)Nc1ccc(CC(=O)N[C@@H](CC(C)C)C(=O)N[C@@H](CC(=O)O)C(=O)N[C@H](C(=O)N2CCC[C@H]2C(=O)N[C@@H](CO)C(=O)N[C@H](C(=O)O)[C@@H](C)O)C(C)C)cc1,> 7.30
7,CC[C@H](C)[C@H](NC(=O)[C@H](CC(=O)O)NC(=O)[C@H](CO)NC(=O)Cc1ccc(NC(=O)Nc2ccccc2C)cc1)C(N)=O,> 7.30
8,CSCC[C@H](NC(=O)[C@H](CC(=O)O)NC(=O)[C@@H](NC(=O)Cc1ccc(NC(=O)Nc2ccccc2C)cc1)[C@@H](C)O)C(N)=O,> 7.30
9,Cc1cccc(NC(=O)Nc2ccc(CC(=O)N[C@@H](CC(C)C)C(=O)N[C@@H](CC(=O)O)C(=O)N[C@H](C(=O)N3CCC[C@H]3C(=O)O)C(C)C)cc2)n1,> 7.30
10,Cc1ccccc1NC(=O)Nc1ccc(CC(=O)N[C@@H](CO)C(=O)N[C@@H](CC(=O)O)C(=O)N[C@H](C(N)=O)[C@@H](C)O)cc1,> 7.30
11,CCCC(NC(=O)Cc1ccccc1)C(=O)N[C@@H](CC(=O)O)C(=O)N[C@H](C(=O)NC)C(C)C (stereo partly drawn),< 5.00
12,Cc1ccccc1NC(=O)Nc1ccc(CC(=O)N[C@@H](CCC(=O)O)C(=O)N[C@@H](CC(=O)O)C(=O)N[C@H](C(N)=O)C(C)C)cc1,> 7.30
13,CC(C)[C@H](NC(=O)[C@H](CC(=O)O)NC(=O)C(C)(C)NC(=O)c1cc2ccccc2cn1)C(=O)O,< 5.00
14,CC[C@H](C)[C@H](NC(=O)Cc1ccc(NC(=O)Nc2ccccc2C)cc1)C(=O)N[C@@H](CC(=O)O)C(=O)N[C@H](C(N)=O)[C@@H](C)O,> 7.30
15,CC[C@H](C)[C@H](NC(=O)Cc1ccc(NC(=O)Nc2ccccc2C)cc1)C(=O)N[C@@H](CC(=O)O)C(=O)N[C@H](C(N)=O)C(C)C,> 7.30
16,CC[C@H](C)[C@H](NC(=O)[C@H](CC(=O)O)NC(=O)[C@@H](NC(=O)Cc1ccc(NC(=O)Nc2ccccc2C)cc1)[C@@H](C)CC)C(N)=O,> 7.30
17,CC[C@H](C)[C@H](NC(=O)Cc1ccc(NC(=O)Nc2ccccc2C)cc1)C(=O)N[C@@H](CC(=O)O)C(=O)N[C@H](CC(N)=O)C(N)=O,> 7.30
18,CC(C)C[C@H](NC(=O)c1ccc2ccccc2n1)C(=O)N[C@@H](CC(=O)O)C(=O)N[C@H](C(N)=O)C(C)C,< 5.00
19,Cc1ccccc1NC(=O)Nc1ccc(CC(=O)N2CCC[C@H]2C(=O)N[C@@H](CC(=O)O)C(=O)N[C@H](CO)C(N)=O)cc1,> 7.30
20,CSCC[C@H](NC(=O)Cc1ccc(NC(=O)Nc2ccccc2C)cc1)C(=O)N[C@@H](CCC(=O)O)C(=O)N[C@@H](CC(=O)O)C(N)=O,> 7.30

row,Compound,pIC50
1,CC(C)C[C@H](NC(=O)Cc1ccccc1)C(=O)N[C@@H](CC(=O)O)C(=O)N1CCCCC1C(=O)NCC(=O)O (stereo partly drawn),< 5.00
2,CC(C)C[C@H](NC(=O)c1cc2ccccc2cn1)C(=O)NC(Cc1nn[nH]n1)C(=O)N[C@H](C(=O)O)C(C)C (stereo partly drawn),< 5.00
3,CC(C)CCC(=O)N[C@@H](CC(=O)O)C(=O)NCC1CCCCC1,< 5.00
4,CC(C)C[C@H](NC(=O)c1cc2ccccc2cn1)C(=O)NC(CC(=O)NO)C(=O)N[C@H](C(=O)O)C(C)C (stereo partly drawn),< 5.00
5,Cc1ccccc1NC(=O)Nc1ccc(CC(=O)N[C@@H](CCC(N)=O)C(=O)N[C@@H](CC(=O)O)C(=O)N[C@H](CO)C(N)=O)cc1,> 7.30
6,CSCC[C@H](NC(=O)[C@H](CC(=O)O)NC(=O)[C@H](CO)NC(=O)Cc1ccc(NC(=O)Nc2ccccc2C)cc1)C(N)=O,> 7.30
7,CC[C@H](C)[C@H](NC(=O)Cc1ccc(NC(=O)Nc2ccccc2C)cc1)C(=O)N[C@@H](CC(=O)O)C(=O)N[C@@H](CC(C)C)C(N)=O,> 7.30
8,COc1nc(CC(=O)N[C@@H](CC(C)C)C(=O)N[C@@H](CC(=O)O)C(=O)N[C@H](C(=O)N2CCC[C@H]2C(=O)O)C(C)C)ccc1NC(=O)Nc1ccccc1C,> 7.30
9,CC[C@H](C)[C@H](NC(=O)Cc1ccc(NC(=O)Nc2ccccc2C)cc1)C(=O)N[C@@H](CC(=O)O)C(=O)N[C@@H](Cc1c[nH]c2ccccc12)C(N)=O,> 7.30
10,CC[C@H](C)[C@H](NC(=O)Cc1ccc(NC(=O)Nc2ccccc2C)cc1)C(=O)N[C@@H](CC(=O)O)C(=O)N[C@@H](CCSC)C(N)=O,> 7.30
11,CSCC[C@H](NC(=O)Cc1ccc(NC(=O)Nc2ccccc2C)cc1)C(=O)N[C@@H](CC(=O)O)C(=O)N[C@@H](Cc1c[nH]c2ccccc12)C(N)=O,> 7.30
12,COC(=O)[C@@H](NC(=O)[C@H](CC(=O)O)N1CCC(NC(=O)OCc2ccccc2)C1=O)C(C)C (stereo partly drawn),< 5.00
13,CC[C@H](C)[C@H](NC(=O)[C@H](CC(=O)O)NC(=O)[C@H](CCSC)NC(=O)Cc1ccc(NC(=O)Nc2ccccc2C)cc1)C(N)=O,> 7.30
14,Cc1ccccc1NC(=O)Nc1ccc(CC(=O)N[C@@H](CC(C)C)C(=O)N[C@@H](CC(=O)O)C(=O)N[C@H](C(=O)N2CCC[C@H]2C(=O)N[C@@H](CO)C(=O)O)C(C)C)cc1,> 7.30
15,Cc1ccccc1NC(=O)Nc1ccc(CC(=O)N[C@@H](CCC(N)=O)C(=O)N[C@@H](CC(=O)O)C(=O)N[C@H](CC(N)=O)C(N)=O)cc1,> 7.30
16,Cc1ccccc1NC(=O)Nc1ccc(CC(=O)N[C@H](C(=O)N[C@@H](CC(=O)O)C(=O)N[C@H](C(N)=O)[C@@H](C)O)[C@@H](C)O)cc1,> 7.30
17,Cc1ccccc1NC(=O)Nc1ccc(CC(=O)N[C@@H](CO)C(=O)N[C@@H](CC(=O)O)C(=O)N[C@H](C(N)=O)C(C)C)cc1,> 7.30
18,CNC(=O)C(C)(C)NC(=O)[C@H](CC(=O)O)NC(=O)[C@H](CC(C)C)NC(=O)c1ccc2ccccc2n1,< 5.00
19,CC(C)[C@H](NC(=O)[C@H](CC(=O)O)NC(=O)C(CC1CCCCC1)NC(=O)c1cc2ccccc2cn1)C(=O)O (stereo partly drawn),< 5.00
